## Ab-14 light chain CDR variants: yeast mating affinities

The target is the same throughout: PDVDLGDISGINAS, from the HR2 region of SARS-CoV-2 spike.

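The parent was found by panning a naive human phage display library on the peptide. These sequences belong to a second round, designed from the earlier measurements on random variants of the parent. Several design methods are mixed in this list. In AlphaSeq, yeast of one mating type display the scFv and yeast of the other type display the target. After mating in shaken culture at 30 °C for 16 h, diploids were selected and their barcode pairs sequenced. A regression on co-assayed BCL2-family reference pairs converts the normalised counts of each replicate to an apparent Kd. There are six technical replicates.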

Parent scFv Ab-14: VH joined to VL by a (GGGGS)3 linker. Changes lie in the light chain CDRs alone.
VH: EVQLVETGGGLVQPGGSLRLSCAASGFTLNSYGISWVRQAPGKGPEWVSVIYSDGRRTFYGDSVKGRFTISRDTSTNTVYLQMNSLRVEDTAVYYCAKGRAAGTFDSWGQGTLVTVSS
VL: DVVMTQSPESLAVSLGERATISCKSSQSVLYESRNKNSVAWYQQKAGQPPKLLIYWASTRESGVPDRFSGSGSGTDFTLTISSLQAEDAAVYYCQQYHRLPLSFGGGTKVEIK

Each variant is given by its three light chain CDRs, as the data file delimits them; those of the parent are KSSQSVLYESRNKNSVA, WASTRES, QQYHRLPLS.
The Kd shown is the geometric mean over detected replicates; a lower Kd is a better binder.
An entry "nd" has no value in the source: the pair was not observed among the diploids in any replicate. This suggests poor binding but is not conclusive.
The list is sorted by this average, lowest first, undetected variants last.
Background: pairings of all light chain designs with three empty control strains gave a value in 4% of cases (median 430 nM, 5th percentile 38 nM). Values in that range, when seen in few replicates, are hard to tell from nonspecific mating. The control count says in how many pairings with the empty strains this scFv gave a signal.
The authors averaged sequences with at least three values out of six and counted those with two or fewer as poor binders.
The range of this assay differs from that of the first round, and the authors advise against merging the two.

CDR-L1	CDR-L2	CDR-L3	apparent Kd	detected	empty controls
KFSQSVLFEPRNKNSVA	DASTRES	QQYHRLPLS	250 pM	6/6	1/18
KSSMSGEMESRNKNNVA	DASQRES	QQYHRLPLS	340 pM	6/6	0/18
KLEQSELYESRNKNSVA	NASTRED	QQYHRLPLS	480 pM	6/6	1/18
KQSQSVLYESVNKNSVA	DASTREM	QQYHRLPLS	620 pM	6/6	0/18
HLSWVVLMESRNKNSVA	NASTRES	QQYHRLPLS	710 pM	6/6	0/18
KSSISYLYESMNKNSVA	EGSTRES	QQYHRLPLS	730 pM	6/6	0/18
KLSQLFYKESRNKNNVA	EMTTRGQ	QQYDRLPLS	1.0 nM	6/6	1/18
KLSQSDCYEDRNLNNVA	NASQRES	QQYHRLPLM	1.0 nM	6/6	3/18
KVSQSVKFESRNKNSVA	DASTRES	QQYHRLPLS	1.1 nM	6/6	2/18
KSSISYDYEDRNQNSVA	SASQREH	QQYHRLPLS	1.3 nM	6/6	1/18
KSSQSELPESRNKNSVA	DASTRES	QQYHRLPLS	1.3 nM	6/6	0/18
KLPQSTLYESRQKNSVA	NASTRES	QQYHRLPLS	1.3 nM	6/6	2/18
KMSQSWLYESRNKNSVA	NASQRES	QDYHRLPLS	1.3 nM	6/6	0/18
KESQSWIYESRNKNSVA	GASTRES	QQYHRLPLS	1.4 nM	6/6	0/18
SLRHMILDWDNKMGNIA	DVHMREQ	QQYFRLPIV	1.5 nM	6/6	0/18
KLSQSVQYESRNKNSVA	EASTRES	QQYHRLPLS	1.7 nM	6/6	0/18
KIGMTLNQLMHQKNNVA	DLVMREN	QQYHRLPLS	1.7 nM	6/6	0/18
TIGPFLMTESHNKNNVA	GMQTRER	QQYHRLPLS	1.9 nM	6/6	0/18
KLLQSVLYESRNKNSVA	HASTRED	QQYGRLPLS	1.9 nM	6/6	0/18
KIGATLNMMSHKKNNVA	DLVTREE	QQYHRLPLS	2.2 nM	6/6	1/18
HLELEYMQMMKDHNSIA	DTEHKTQ	QQYFRLPIS	2.3 nM	6/6	0/18
KVQGLMNIEQMNSKSVA	QSSTREN	QQYHRLPLS	2.7 nM	6/6	4/18
KISQSVLMESLNKNSVA	HASTRID	QQYHRLPLS	2.8 nM	6/6	0/18
KFGQSVLMGSYVRNSVA	QQSTRVN	QQYDRLPLS	3.2 nM	6/6	0/18
KLYALTMLESHDKNSIA	DLSTRGN	QQYHRLPLS	3.2 nM	6/6	1/18
KLSQSVLYESRNKNSVA	NASTRES	QQYHRLPLQ	4.2 nM	6/6	2/18
KLAQSTKYESRNQNSVA	WASTRES	QQYHRLPLS	4.3 nM	6/6	1/18

Further variants, results first:

apparent Kd	detected	empty controls	CDR-L1	CDR-L2	CDR-L3
5.1 nM	6/6	0/18	SLQTKYSTAQDRWSNIA	HADQREA	QQYFRLPIV
5.5 nM	6/6	0/18	RSSQSVYYESRNKNSVA	DASTRES	QQYHRLPLS
6.5 nM	6/6	0/18	TIGGTLMYGSRNRSNVA	EVSERLN	QQYDRLPLF
7.0 nM	6/6	0/18	KLQQSWPYESRNKNSVA	NASTRMS	QQYHRLPLS
7.1 nM	6/6	0/18	HVEHASLLSNATMNSVA	NEACLAD	QQYHRLPLA
7.9 nM	6/6	1/18	KFSQSVLGESRNKNSVA	WASTRES	QQYHRIPIS
8.6 nM	6/6	1/18	KIGGVTNGISRSKNSVA	EQSTRES	QQYNRLPLS
11 nM	6/6	0/18	TLVDWIQGGTWAKKNVA	DEQTRMN	QQYYRLPLS
11 nM	6/6	1/18	MVLKEDFQEYAAKNAVA	NAAEKET	QHYARLPLV
11 nM	6/6	0/18	KIGMTLNTLMHQKNNVA	DLVTREN	QQYHRLPLS
13 nM	5/6	1/18	ILSQMMLTAGNKHNSVA	QANNRES	QQYHRLPLS
14 nM	6/6	0/18	KLRQSTGYESRNQNSVA	WASTRES	QQYHRLPLS
17 nM	6/6	0/18	KSSQSVLYDSRNQNSVA	WASTRES	QQYHRLPLS
19 nM	6/6	0/18	KSSQSVLYESRNKNSVA	NASTRYS	QQYHRLPLS
22 nM	6/6	0/18	KMSQSALYMSRNKNSVA	WASTRES	QQCHKLPLS
23 nM	6/6	2/18	KVSEFMRGMMRQKNSIA	DNNTRSN	QQYDRLPLS
25 nM	2/6	0/18	KSTQSVLMEERNKNSVA	WASTRES	QQYHRLPLS
29 nM	6/6	2/18	KISQNMGETQRNKNSVA	EVSTVPS	QQYWRLPLS
44 nM	3/6	0/18	HITMGMYVKGRHHSSIA	QAETRAK	QQYDHLPLI
48 nM	6/6	0/18	KSSSSVLYESRNKNSVA	WASTREN	QQYHRLPLS
51 nM	6/6	1/18	VISELYNEAIGMRNNVA	NNQTRED	QQYARLPLS
94 nM	6/6	0/18	QLYEMMQELSGKVHSVA	DNSTRGD	QQYFRLPLD
200 nM	6/6	4/18	HMSVLTLQGMRHRNSVA	QMTTREN	QQYDRLPLS
430 nM	4/6	0/18	MFSYNLHDMGANKHSVA	EMNKVTG	QDYHRLPLS
nd	0/6	0/18	FLTYQQDQTGLQYNAIA	QVNLKEN	QQYGRLPFA
nd	0/6	1/18	KSSPSVFYESRNAVSVA	WASTRES	QQYHRKPLS
nd	0/6	0/18	HSQVSVQYESRNKNGVA	WASTRES	QQYHHLPLS

From the list, the first 3 with no signal in any replicate:

CDR-L1	CDR-L2	CDR-L3	apparent Kd	detected	empty controls
FLTYQQDQTGLQYNAIA	QVNLKEN	QQYGRLPFA	nd	0/6	0/18
KSSPSVFYESRNAVSVA	WASTRES	QQYHRKPLS	nd	0/6	1/18
HSQVSVQYESRNKNGVA	WASTRES	QQYHHLPLS	nd	0/6	0/18

Values reported by Li et al. 2023, doi:10.1038/s41467-023-39022-2 (FLAb copy).